Laboratory results: paper PMC12644462, “A novel radiosensitizer α-sulfoquinovosyl-acylpropanediol (SQAP) inhibits DNA repair pathways and sensitize cells to cancer chemotherapeutic agents” (Scientific Reports, 2025)

Tested on: Chinese hamster V79 cells
Assay: Colony formation assay, radio- and chemosensitization
Assay type: cell-based
Conditions: V79, 10 and 20 µM SQAP
Experimental: For hypoxia irradiation, cell cultures were placed in Aneropak Kenki system (Mitsubishi Gas Chemical, Tokyo, Japan) with oxygen meter to confirm pO2 below 0.1%. Cells were kept in hypoxia for 3 h before irradiation.

bleomycin
effect of SQAP on cytotoxicity of the agent: increased the cytotoxicity
